A word on the Kd: it is a measure of binding affinity in units of concentration.

Protein sequences, listed by entry. Tags and fused reporters are not part of them. Residues count along the entry.
UniProt P01589, 22-213 limits assumed: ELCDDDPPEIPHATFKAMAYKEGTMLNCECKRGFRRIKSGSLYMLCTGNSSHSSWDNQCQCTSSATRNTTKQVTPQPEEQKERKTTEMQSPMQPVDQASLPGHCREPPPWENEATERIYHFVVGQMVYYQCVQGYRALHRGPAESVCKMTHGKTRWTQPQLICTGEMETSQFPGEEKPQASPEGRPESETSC

Kd data for 1 substance are collected here from patent publication US20090081219A1.

In the assay the target is recombinant human CD25 (rhCD25), NS/0-expressed recombinant protein from R&D Systems (cat#223-2A/CF) (human) (UniProt P01589). The assay can be described thus: SPR, BIAcore 3000, 25 C; rhCD25 amine-coupled to CM-5 chip at low density, antibody as analyte, 1:1 Langmuir model. In general terms: In SPR one partner is held on a chip, and binding of the other changes the refractive index at the surface.

For the substance “Zenapax (daclizumab, recombinant humanized IgG1 anti-CD25 antibody, Roche)”, the dissociation constant (Kd) stood at 0.152 nM.
